As a reminder, the EC50 is the concentration needed to bring the measured effect to its halfway point. A word on the IC50: it is the midpoint of a concentration-inhibition curve. A lower IC50 goes with greater potency.

Protein sequences, listed by entry. Tags and fused reporters are not part of them. Residues count along the entry.
UniProt Q9WTR4, 1-597: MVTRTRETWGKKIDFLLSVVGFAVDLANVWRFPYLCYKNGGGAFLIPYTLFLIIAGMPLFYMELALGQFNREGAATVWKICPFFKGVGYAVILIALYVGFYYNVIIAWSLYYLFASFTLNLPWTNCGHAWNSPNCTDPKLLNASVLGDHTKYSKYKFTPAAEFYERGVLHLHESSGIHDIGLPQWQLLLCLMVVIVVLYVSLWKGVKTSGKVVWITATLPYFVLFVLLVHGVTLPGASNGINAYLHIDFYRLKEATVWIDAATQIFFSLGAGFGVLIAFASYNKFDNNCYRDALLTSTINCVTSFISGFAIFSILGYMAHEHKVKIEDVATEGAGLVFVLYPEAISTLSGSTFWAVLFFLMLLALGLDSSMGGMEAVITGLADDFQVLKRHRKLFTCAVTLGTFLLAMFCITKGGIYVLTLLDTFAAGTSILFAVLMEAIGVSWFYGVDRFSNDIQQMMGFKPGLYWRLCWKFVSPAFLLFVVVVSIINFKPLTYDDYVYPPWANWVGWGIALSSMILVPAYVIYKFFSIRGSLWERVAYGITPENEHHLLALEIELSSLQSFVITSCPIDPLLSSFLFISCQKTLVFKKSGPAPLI
UniProt P23977, whole entry, looked up: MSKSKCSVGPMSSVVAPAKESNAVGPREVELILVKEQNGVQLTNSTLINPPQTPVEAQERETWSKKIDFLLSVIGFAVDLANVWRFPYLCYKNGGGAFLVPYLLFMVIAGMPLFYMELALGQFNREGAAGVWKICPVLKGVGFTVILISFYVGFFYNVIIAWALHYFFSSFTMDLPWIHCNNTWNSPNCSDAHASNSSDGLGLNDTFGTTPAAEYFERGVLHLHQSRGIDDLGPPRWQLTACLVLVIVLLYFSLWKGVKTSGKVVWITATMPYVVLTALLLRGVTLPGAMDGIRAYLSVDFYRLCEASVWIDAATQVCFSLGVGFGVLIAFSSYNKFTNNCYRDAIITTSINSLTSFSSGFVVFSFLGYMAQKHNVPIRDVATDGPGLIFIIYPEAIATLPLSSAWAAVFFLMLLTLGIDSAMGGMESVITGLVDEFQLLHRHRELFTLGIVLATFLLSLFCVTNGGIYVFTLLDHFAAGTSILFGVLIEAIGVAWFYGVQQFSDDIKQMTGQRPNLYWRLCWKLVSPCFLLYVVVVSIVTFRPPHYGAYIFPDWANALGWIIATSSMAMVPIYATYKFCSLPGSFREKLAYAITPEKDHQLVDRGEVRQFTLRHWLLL
UniProt P28223, whole entry, looked up: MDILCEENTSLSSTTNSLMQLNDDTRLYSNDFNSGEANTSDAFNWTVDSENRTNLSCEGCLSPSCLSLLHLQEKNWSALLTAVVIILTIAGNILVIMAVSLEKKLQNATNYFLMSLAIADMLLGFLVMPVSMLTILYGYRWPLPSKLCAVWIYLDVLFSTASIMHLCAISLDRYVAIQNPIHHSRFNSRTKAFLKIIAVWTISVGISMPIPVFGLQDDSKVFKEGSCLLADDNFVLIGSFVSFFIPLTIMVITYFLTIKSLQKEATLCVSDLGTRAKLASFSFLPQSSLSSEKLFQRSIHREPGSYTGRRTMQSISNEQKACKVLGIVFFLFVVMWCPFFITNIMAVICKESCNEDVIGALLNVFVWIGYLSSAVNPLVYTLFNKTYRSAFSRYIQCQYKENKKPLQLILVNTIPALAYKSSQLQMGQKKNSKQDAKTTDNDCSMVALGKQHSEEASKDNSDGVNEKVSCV

SMILES strings stand for the structures.

The target in the first experiment is T1, Norepinephrine transporter (Rattus norvegicus, UniProt Q9WTR4). Nature of the experiment: Induction of NET-mediated norepinephrine release in rat brain synaptosomes by [3H]NE release assay.
The compound `CCC(N)Cc1c[nH]c2ccc(F)cc12` (stereo not drawn) gave an EC50 of 5330 nM.
`CC(N)Cc1c[nH]c2ccc(Cl)cc12` (stereo not drawn) came in with an EC50 of 3430 nM.
The same measure, in the same setting: then `NCCc1c[nH]c2cc(F)ccc12`, with 1570 nM.
Same read-out and setting: to `NCCc1c[nH]c2ccccc12` belongs 716 nM.
On the same count and under the same terms, then `Cn1cc(CCN)c2ccccc21`, with more than 10000 nM; and `CCC(N)Cc1c[nH]c2ccc(Cl)cc12` (stereo not drawn), with more than 10000 nM; and `CCC(N)Cc1c[nH]c2ccccc12` (stereo not drawn), with 640 nM.
In the case of `Cc1ccc2[nH]cc(CCN)c2c1`, the EC50 is more than 10000 nM.
Same read-out and setting: then `Cc1cccc2c(CCN)c[nH]c12`, with more than 10000 nM; and `CC(N)Cc1c[nH]c2ccccc12` (stereo not drawn), with 112 nM; and `COc1ccc2[nH]cc(CCN)c2c1`, with more than 10000 nM.
Same read-out and setting: then `COc1cccc2[nH]cc(CCN)c12`, with more than 10000 nM; and `NCCc1c[nH]c2c(Cl)cccc12`, with 656 nM; and `CNCCc1c[nH]c2ccccc12`, with 733 nM.
The same measure, in the same setting: to `NCCc1c[nH]c2ccc(Br)cc12` belongs more than 10000 nM.
As for `COc1cccc2c(CCN)c[nH]c12`, the midpoint of the response, the EC50, lay at 5600 nM.
`CC[C@H](N)Cc1c[nH]c2ccccc12` gave an EC50 of 3670 nM.
Regarding `CC(N)Cc1c[nH]c2ccc(F)cc12` (stereo not drawn), the EC50 is 78 nM.
On the same count and under the same terms, then `NCCc1c[nH]c2ccc(Cl)cc12`, with more than 10000 nM; and `CC[C@@H](N)Cc1c[nH]c2ccccc12`, with 592 nM.
Same read-out and setting: to `NCCc1c[nH]c2cccc(F)c12` belongs 1120 nM; to `COc1ccc2c(CCN)c[nH]c2c1`, 465 nM.
On the same count and under the same terms, to `NCCc1c[nH]c2ccc(F)cc12` belongs 464 nM; to `Cc1ccc2c(CCN)c[nH]c2c1`, more than 10000 nM.

The target of another experiment is Sodium-dependent dopamine transporter (Rattus norvegicus, UniProt P23977). As to the kind of experiment: Induction of DAT-mediated dopamine release in rat brain synaptosomes by [3H]DA release assay.
`CC(N)Cc1c[nH]c2ccc(Cl)cc12` (stereo not drawn) displayed an EC50 of 54.3 nM.
Turning to `CC[C@@H](N)Cc1c[nH]c2ccccc12`, the EC50 amounted to 57.6 nM.

The target of the next experiment is 5-hydroxytryptamine receptor 2A (Homo sapiens, UniProt P28223). As to the kind of experiment: Agonist activity at 5HT2A receptor (unknown origin) by cell based calcium mobilization assay. A general note: Calcium assays in cells follow changes in intracellular calcium, usually with a dye or a luminescent sensor.
For `CC[C@H](N)Cc1c[nH]c2ccccc12`, the EC50 result is listed as “Not Active”.

The target in another experiment is T1, Norepinephrine transporter. As to the kind of experiment: Inhibition of NET-mediated norepinephrine release in rat brain synaptosomes by [3H]NE release assay.
For the compound `CCNCCc1c[nH]c2ccccc12`, 3860 nM corresponded to half-maximal inhibition (IC50).

The values above are taken from ChEMBL document CHEMBL3351908, “Alpha-ethyltryptamines as dual dopamine-serotonin releasers” (2014).
